The target of assay [1] is Receptor tyrosine-protein kinase erbB-2 (Homo sapiens, UniProt P04626).
The subject of another assay is HN5. Briefly: Antiproliferative activity against human HN5 cells overexpressing EGFR after 3 days by methylene blue staining. The note with it: HN5, 72 h.
Assay [2] deals with Epidermal growth factor receptor (Homo sapiens, UniProt P00533). Description: Inhibition of EGFR kinase.
For a further assay, the system named is BT-474. Briefly: Antiproliferative activity against human BT474 cells overexpressing ErbB2 after 3 days by methylene blue staining. The conditions noted are these: BT-474, 72 h.

By UniProt entry, the sequences of proteins in these tests, tags left out.
UniProt P04626, whole entry: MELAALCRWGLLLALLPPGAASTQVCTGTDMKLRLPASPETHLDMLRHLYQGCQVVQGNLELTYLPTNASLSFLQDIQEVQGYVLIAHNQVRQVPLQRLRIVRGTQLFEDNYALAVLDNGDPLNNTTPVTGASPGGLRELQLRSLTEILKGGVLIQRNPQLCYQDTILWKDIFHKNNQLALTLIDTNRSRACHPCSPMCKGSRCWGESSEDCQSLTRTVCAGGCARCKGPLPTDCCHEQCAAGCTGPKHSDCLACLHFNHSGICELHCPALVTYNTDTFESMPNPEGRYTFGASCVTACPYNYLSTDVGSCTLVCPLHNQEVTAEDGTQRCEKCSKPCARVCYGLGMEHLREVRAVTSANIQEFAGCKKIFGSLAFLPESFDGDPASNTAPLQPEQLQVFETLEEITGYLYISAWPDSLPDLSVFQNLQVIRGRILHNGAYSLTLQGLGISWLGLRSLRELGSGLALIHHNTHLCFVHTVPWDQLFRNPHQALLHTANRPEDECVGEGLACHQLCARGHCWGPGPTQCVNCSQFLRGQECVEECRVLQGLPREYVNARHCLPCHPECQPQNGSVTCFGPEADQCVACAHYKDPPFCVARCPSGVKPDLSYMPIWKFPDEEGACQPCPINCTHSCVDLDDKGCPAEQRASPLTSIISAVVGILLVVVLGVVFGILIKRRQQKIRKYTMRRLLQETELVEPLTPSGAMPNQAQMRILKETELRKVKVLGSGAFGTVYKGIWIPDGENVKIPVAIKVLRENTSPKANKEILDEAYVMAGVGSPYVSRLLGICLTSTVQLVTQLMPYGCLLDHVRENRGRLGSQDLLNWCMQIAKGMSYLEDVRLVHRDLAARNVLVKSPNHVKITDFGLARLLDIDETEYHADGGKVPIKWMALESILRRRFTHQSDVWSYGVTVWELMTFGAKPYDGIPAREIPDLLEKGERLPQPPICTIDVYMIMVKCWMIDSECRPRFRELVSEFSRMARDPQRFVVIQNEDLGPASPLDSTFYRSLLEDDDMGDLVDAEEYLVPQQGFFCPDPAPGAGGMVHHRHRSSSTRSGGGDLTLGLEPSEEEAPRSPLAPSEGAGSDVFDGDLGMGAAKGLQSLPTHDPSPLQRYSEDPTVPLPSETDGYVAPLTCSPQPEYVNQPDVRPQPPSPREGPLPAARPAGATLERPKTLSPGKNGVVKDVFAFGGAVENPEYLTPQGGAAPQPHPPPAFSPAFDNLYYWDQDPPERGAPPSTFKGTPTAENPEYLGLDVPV
UniProt P00533, whole entry: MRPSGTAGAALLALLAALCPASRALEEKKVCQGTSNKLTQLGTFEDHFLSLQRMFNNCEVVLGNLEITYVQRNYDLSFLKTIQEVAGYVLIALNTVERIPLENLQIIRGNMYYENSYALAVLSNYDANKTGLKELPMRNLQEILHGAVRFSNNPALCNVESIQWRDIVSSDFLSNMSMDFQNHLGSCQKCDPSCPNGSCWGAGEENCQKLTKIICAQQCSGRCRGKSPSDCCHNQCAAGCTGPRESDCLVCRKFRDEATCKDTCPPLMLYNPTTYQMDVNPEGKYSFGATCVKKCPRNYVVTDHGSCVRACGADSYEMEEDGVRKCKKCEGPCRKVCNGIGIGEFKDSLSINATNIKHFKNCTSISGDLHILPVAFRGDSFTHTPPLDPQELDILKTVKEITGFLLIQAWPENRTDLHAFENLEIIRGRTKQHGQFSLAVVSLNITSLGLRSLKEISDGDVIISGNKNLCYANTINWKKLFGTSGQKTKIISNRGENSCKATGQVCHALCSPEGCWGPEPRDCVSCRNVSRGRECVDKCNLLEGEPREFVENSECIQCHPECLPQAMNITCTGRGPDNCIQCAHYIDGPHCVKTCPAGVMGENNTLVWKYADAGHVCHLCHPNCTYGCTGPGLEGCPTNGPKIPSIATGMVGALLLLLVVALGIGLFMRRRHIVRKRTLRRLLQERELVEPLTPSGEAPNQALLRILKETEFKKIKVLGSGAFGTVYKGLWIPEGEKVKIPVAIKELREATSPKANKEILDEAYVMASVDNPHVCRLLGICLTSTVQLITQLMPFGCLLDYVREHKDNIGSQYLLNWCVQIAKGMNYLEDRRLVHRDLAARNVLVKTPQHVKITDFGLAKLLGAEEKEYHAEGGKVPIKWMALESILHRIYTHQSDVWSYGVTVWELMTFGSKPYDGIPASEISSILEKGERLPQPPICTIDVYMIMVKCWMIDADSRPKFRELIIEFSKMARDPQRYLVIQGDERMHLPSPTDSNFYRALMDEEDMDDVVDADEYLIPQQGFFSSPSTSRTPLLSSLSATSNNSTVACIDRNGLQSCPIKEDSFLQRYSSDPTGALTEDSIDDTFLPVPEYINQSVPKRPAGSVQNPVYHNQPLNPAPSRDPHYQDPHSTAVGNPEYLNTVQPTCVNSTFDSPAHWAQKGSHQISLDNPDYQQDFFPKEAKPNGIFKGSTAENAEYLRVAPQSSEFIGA

SMILES strings stand for the structures.

Compound `CCNC(=O)O[C@H]1CN[C@H](C#Cc2cc3ncnc(Nc4ccc(OCc5cccc(F)c5)c(Cl)c4)c3s2)C1` [GSK-192082A] came in with an IC50 in assay [1] of 43 nM.

With `O=C(O[C@H]1CN[C@H](C#Cc2cc3ncnc(Nc4ccc(OCc5cccc(F)c5)c(Cl)c4)c3s2)C1)N1CCOCC1` [GW869810X], the results for the IC50 (in the assay with HN5; in assay [2]) were 160 nM and 65 nM, respectively.

Turning to `COCCN1CCC[C@@H]1C#Cc1cc2ncnc(Nc3ccc(OCc4cccc(F)c4)c(Cl)c3)c2s1`, the IC50 (with BT-474; in assay [1]) was 110 nM throughout.

For orientation: IC50 means the midpoint of a concentration-inhibition curve. Low values mean higher potency, high ones lower potency.

These data come from ChEMBL document CHEMBL1143444, “Dual EGFR/ErbB-2 inhibitors from novel pyrrolidinyl-acetylenic thieno[3,2-d]pyrimidines” (Bioorg Med Chem Lett, 2008).
